Chains of the proteins cited; added tags and fusions are not shown. Residues count along the entry.
UniProt P41597, 1-360 isoform 2: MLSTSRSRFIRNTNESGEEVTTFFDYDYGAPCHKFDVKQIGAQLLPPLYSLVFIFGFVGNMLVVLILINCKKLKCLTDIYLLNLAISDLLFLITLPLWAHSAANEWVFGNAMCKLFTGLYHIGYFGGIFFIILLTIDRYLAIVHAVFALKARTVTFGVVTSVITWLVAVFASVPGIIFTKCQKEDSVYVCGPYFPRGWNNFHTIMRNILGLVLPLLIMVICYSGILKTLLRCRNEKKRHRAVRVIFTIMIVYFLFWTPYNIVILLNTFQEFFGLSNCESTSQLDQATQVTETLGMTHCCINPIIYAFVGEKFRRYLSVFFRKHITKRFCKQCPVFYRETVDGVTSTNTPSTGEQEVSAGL

In patent US8835440B2, “Cyclic pyrimidin-4-carboxamides as CCR2 receptor antagonists for treatment of inflammation, asthma and COPD” (Boehringer Ingelheim International GmbH, priority 2008, dated 2014):

Molecular target: CCR2 (Homo sapiens, UniProt P41597)
Assay: CCR2 receptor membrane binding assay ([125I]MCP-1, THP-1 cell membranes, SPA beads)
Conditions: read-out: hKi; dissociation constant hKi; [125I]MCP-1 binding to THP-1 membranes

Structure (SMILES)	Ki [nM]
Cc1c(NCC2CCCC(c3ccccc3)C2)ncnc1C(=O)N1CCC(N2CCC(NS(C)(=O)=O)CC2)CC1 (centres unmarked)	9
COCCn1ncc2c1CN(C1CCN(C(=O)c3ncnc(NCc4ccc(C(C)(C)C)cc4)c3C)CC1)CC2	3830
